{
  "source": "patent US8927533B2",
  "about": "“Thio derivatives bearing lactams as potent HDAC inhibitors and their uses as medicaments” (SIGMA-TAU Industrie Farmaceutiche Riunite S.p.A., priority 2011, dated 2015)",
  "target": "T1, HDAC10 (Homo sapiens, UniProt Q969S8)",
  "T1 sequence (Q969S8 1-669)": "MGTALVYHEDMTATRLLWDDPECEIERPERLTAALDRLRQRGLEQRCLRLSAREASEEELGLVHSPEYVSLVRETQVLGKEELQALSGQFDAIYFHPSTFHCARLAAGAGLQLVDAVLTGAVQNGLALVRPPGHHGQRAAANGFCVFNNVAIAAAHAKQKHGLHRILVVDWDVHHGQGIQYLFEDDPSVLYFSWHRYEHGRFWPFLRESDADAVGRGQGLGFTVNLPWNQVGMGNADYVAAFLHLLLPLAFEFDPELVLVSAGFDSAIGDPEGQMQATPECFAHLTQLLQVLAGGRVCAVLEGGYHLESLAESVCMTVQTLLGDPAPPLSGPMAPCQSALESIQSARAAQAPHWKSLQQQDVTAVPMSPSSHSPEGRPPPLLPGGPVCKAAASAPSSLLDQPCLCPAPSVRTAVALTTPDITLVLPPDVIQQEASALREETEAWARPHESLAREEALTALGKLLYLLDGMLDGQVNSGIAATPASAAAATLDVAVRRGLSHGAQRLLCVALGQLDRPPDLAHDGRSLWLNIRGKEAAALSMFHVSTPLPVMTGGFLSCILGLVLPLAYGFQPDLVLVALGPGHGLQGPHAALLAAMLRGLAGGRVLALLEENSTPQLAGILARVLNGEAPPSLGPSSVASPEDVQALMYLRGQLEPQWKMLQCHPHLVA",
  "assay": "HDAC enzymatic assay, HDAC10",
  "assay_type": "biochemical",
  "protocol": "Each compound was dissolved in DMSO, and progressively diluted solutions were used for testing. […] Upon its deacetylation, the fluorophore was released given rise to fluorescence emission which was detected by a fluorimeter, and the IC50 values of the compounds were determined by analyzing dose-response inhibition curves.",
  "data": [
    {"molecule": "O=C(CCCCCCC(=O)Nc1ccccc1)NO", "note": "[SAHA, suberoylanilide hydroxamic acid, reference compound]", "values": [
      {"measurement": "IC50", "value": "100 to 500", "unit": "nM"}
    ]}
  ]
}
